## Ab-14 heavy chain CDR variants: yeast mating affinities

From the AlphaSeq antibody data of Li et al. 2023 (doi:10.1038/s41467-023-39022-2), copy in the FLAb collection.

The target is the same throughout: PDVDLGDISGINAS, from the HR2 region of SARS-CoV-2 spike.

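These sequences belong to a second round, designed from the earlier measurements on random variants of the parent. Group labels follow the data file (Ctrl: baseline library sampled from a position-specific scoring matrix, with some repeated check sequences; Rand: our label for a block that the file lists under HC and that is probably the random mutants of the ten best first-round binders; En: ensemble of fine-tuned language models; GP: Gaussian process model; GPLM: also part of the Gaussian process libraries; HC: hill climbing; Gen: genetic algorithm; Gibbs: Gibbs sampling; a sequence that several methods proposed may carry one label only). AlphaSeq pools MATa yeast showing the antibodies with MATalpha yeast showing the peptide. After mating in shaken culture at 30 °C for 16 h, diploids were selected and their barcode pairs sequenced. Read counts were normalised to the haploid input and turned into Kd by a linear fit to BCL2-family pairs of known affinity, for each replicate. There are six technical replicates.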

The variants keep the light chain, the linker and the frameworks of Ab-14 (scFv order VH, the linker GGGGSGGGGSGGGGS, VL).
VH: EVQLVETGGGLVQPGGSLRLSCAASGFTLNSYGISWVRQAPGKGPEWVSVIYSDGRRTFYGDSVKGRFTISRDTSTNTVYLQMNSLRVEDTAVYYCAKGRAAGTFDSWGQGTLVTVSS
VL: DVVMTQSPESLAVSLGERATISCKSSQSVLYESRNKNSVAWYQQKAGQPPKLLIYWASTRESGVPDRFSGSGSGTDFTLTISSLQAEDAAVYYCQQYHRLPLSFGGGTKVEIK

Positions count from residue 1 of the parent VH; F59A puts A in place of F. This list holds designs with at most six substitutions. Each Kd is an estimate from the mating assay, the geometric mean of the replicates in which the pair was seen; lower is stronger. Where no diploid with the target was found in any replicate, the entry reads "nd": below detection, most likely a poor binder, though not proof of it.

F59A/G61S/R100H [GP_HC]: 7.2 nM (6 of 6 replicates; controls 0 of 18).
T28S/R100K/A101L [GPLM_Gen]: nd (0 of 6 replicates; controls 0 of 18).
G26K/T28S/S31D/A101T [GPLM_Gen]: 2.6 nM (6 of 6 replicates; controls 0 of 18).
G55L/G61N/D62Q/A102G [Rand]: nd (0 of 6 replicates; controls 0 of 18).
N30G/S31E/G103V/S107Q [Rand]: nd (0 of 6 replicates; controls 0 of 18).
R56Q/G61S/R100K/A101E [GPLM_Gibbs]: 970 pM (6 of 6 replicates; controls 0 of 18).
S31E/G61T/S63R/R100Q/A101F [GP_HC]: 66 nM (6 of 6 replicates; controls 0 of 18).
G61S/R100N/T104K/S107T [GP_HC]: nd (0 of 6 replicates; controls 0 of 18).
G26L/S31E/G61Q/A101T [GP_HC]: 26 nM (4 of 6 replicates; controls 0 of 18).
N30M/G61D/R100Q/A101T [GPLM_HC]: 32 nM (3 of 6 replicates; controls 0 of 18).
T28D/G61V/A101H [GP_Gen]: 11 nM (6 of 6 replicates; controls 0 of 18).
T28S/G61T/R100Q/A101T [GPLM_Gen]: 1.9 nM (6 of 6 replicates; controls 0 of 18).
F59S/S107L [Ctrl]: 8.0 nM (4 of 6 replicates; controls 0 of 18).
S63A/A102C/D106F [Ctrl]: nd (0 of 6 replicates; controls 0 of 18).
T28S/R56K/G61A/A101Q [GPLM_Gen]: 1.6 nM (6 of 6 replicates; controls 2 of 18).
T28S/F59M/G61I/R100Q [GPLM_Gen]: 13 nM (3 of 6 replicates; controls 0 of 18).
R56S/T58Q/V64F/A101H/S107Q [Ctrl]: nd (0 of 6 replicates; controls 1 of 18).
S31D/F59Q/G61E/A102G [Rand]: nd (0 of 6 replicates; controls 0 of 18).
S31D/I34D/F59Q/G61I/A102M [Rand]: 46 nM (1 of 6 replicates; controls 1 of 18).
S53A/T104Q/D106N [Ctrl]: nd (0 of 6 replicates; controls 0 of 18).
G26F/T28S/S31E/A101T [GP_Gen]: 32 nM (2 of 6 replicates; controls 0 of 18).
T28H/S31D/G61I/A101Q [GP_HC]: 340 nM (3 of 6 replicates; controls 1 of 18).
T28E/G61S/R100K/A101E/S107T [GP_Gibbs]: 1.4 nM (6 of 6 replicates; controls 0 of 18).
T28W/A101H/T104L [Ctrl]: nd (0 of 6 replicates; controls 0 of 18).
N30D/G99M/F105A/D106L [Rand]: nd (0 of 6 replicates; controls 0 of 18).
G61S/A102G/S107Q [GPLM_HC]: nd (0 of 6 replicates; controls 0 of 18).
Y52H/G61Q/A102G [Ctrl]: nd (0 of 6 replicates; controls 0 of 18).
T28W/S31D/G61H/R100Q/A101T [GP_Gibbs]: 16 nM (5 of 6 replicates; controls 0 of 18).
G26K/T28K/S53A/A101T [GP_Gen]: 95 nM (6 of 6 replicates; controls 3 of 18).
G61S/S107Y [Ctrl]: 84 nM (5 of 6 replicates; controls 1 of 18).
T28E/R100V/A101E/S107T [GP_Gen]: 570 pM (6 of 6 replicates; controls 0 of 18).
R100T/A101V/T104E [Ctrl]: 650 nM (1 of 6 replicates; controls 2 of 18).
G26M/T28E/S53A/R100E/S107F [GP_Gibbs]: 1.0 µM (5 of 6 replicates; controls 0 of 18).
T28S/S63N/A101T/S107T [GPLM_Gen]: 2.1 nM (6 of 6 replicates; controls 0 of 18).
S31D/F59Q/G61I [Ctrl+En_HC]: 20 nM (11 of 12 replicates; controls 0 of 36).
T28E/S31E/A101L/S107T [GP_Gen]: 4.1 nM (6 of 6 replicates; controls 0 of 18).
T28D/G61H/G103V [GP_HC]: nd (0 of 6 replicates; controls 0 of 18).
S53A/G103D/F105N/D106F [Rand]: nd (0 of 6 replicates; controls 0 of 18).
T28D/A101W/D106N [GP_HC]: 870 pM (1 of 6 replicates; controls 0 of 18).
T28D/G61A/R100N/A101V [GP_Gen]: 14 nM (5 of 6 replicates; controls 0 of 18).
T28N/A101H [GPLM_Gibbs]: 25 nM (3 of 6 replicates; controls 0 of 18).
R100G/A102E/G103W [Ctrl]: nd (0 of 6 replicates; controls 0 of 18).
T28N/G61H/A101Q [GPLM_Gibbs]: 1.1 nM (1 of 6 replicates; controls 0 of 18).
N30G/A101R/A102I/F105A [Ctrl]: nd (0 of 6 replicates; controls 0 of 18).
T28D/T104S/D106R [GP_HC]: 3.7 nM (6 of 6 replicates; controls 0 of 18).
S31E/D54F/G55K/G103V/S107Q [Rand]: nd (0 of 6 replicates; controls 0 of 18).
T28N/S31Q/G61S [Ctrl]: nd (0 of 6 replicates; controls 0 of 18).
F59Q/G61I/R100N [GP_HC]: 210 nM (4 of 6 replicates; controls 1 of 18).
S35H/T58V/A102H [Ctrl]: nd (0 of 6 replicates; controls 2 of 18).
T28S/N30D/S31E/S53A/G61A/R100E [En_HC]: 43 nM (6 of 6 replicates; controls 0 of 18).
T28E/S53A/R100K/S107M [GP_Gen]: 560 pM (6 of 6 replicates; controls 1 of 18).
S53A/F105N/D106K/S107T [GP_HC]: nd (0 of 6 replicates; controls 0 of 18).

Excerpt, the first 5 entries:

The variant F59A/G61S/R100H [GP_HC] showed 7.2 nM (6 of 6 replicates; controls 0 of 18).
The variant T28S/R100K/A101L [GPLM_Gen] showed nd (0 of 6 replicates; controls 0 of 18).
The variant G26K/T28S/S31D/A101T [GPLM_Gen] showed 2.6 nM (6 of 6 replicates; controls 0 of 18).
The variant G55L/G61N/D62Q/A102G [Rand] showed nd (0 of 6 replicates; controls 0 of 18).
The variant N30G/S31E/G103V/S107Q [Rand] showed nd (0 of 6 replicates; controls 0 of 18).

Values of this round are not directly comparable with the first-round values of the same sequences. Of ten entries with the parent sequence, four were seen in most replicates (averages 2.2 nM to 240 nM), three in one and three in none, so single entries are noisy. The authors' rule: three or more of the six replicates give a measured affinity, fewer mean a poor binder. A sequence that the file lists under several names has all its replicates pooled. Three control strains display no target. For all heavy chain designs, 1% of the pairings with them gave a signal, with a median of 120 nM and one signal in twenty below 7.0 nM, so weak values seen in few replicates may be background. For each scFv, signals with the empty controls are counted beside the result.